The values below are quoted from earlier work in publication PMC8513935.

The nature of data set [1]: log P octanol/water from commercial databases, averaged (the ESI). The following applies: Octanol (wet), 25 C.
Data set [2] is described as follows: derived by the authors as gas->solvent minus gas->water (a hypothetical dry solvent; the ESI), not a two-phase measurement. The following applies: 25 C.

`c1ccc2ccccc2c1`: the log K of transfer, water to solvent in data set [1] is 3.32 log10 K; in data set [2] (Acetonitrile), 3.87 log10 K; in data set [2] (Dichloromethane) it was 4.18 log10 K.
